Data: ChEMBL document CHEMBL1125034, “Design and synthesis of 4H-3,1-benzoxazin-4-ones as potent alternate substrate inhibitors of human leukocyte elastase” (J Med Chem, 1990)

Columns and labels:
[1] = target: T1, Neutrophil elastase (Homo sapiens) (UniProt P08246); test: Component acylation rate constant for interaction with human leukocyte elastase
T1 sequence (whole entry): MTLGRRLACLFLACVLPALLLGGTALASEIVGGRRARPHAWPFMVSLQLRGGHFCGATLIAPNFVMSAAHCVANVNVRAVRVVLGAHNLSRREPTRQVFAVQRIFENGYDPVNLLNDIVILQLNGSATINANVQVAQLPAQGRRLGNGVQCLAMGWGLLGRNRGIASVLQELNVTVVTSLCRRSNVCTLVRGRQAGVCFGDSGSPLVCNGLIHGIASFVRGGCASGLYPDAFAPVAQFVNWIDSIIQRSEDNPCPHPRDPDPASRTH

[2] = target: T1, Neutrophil elastase (Homo sapiens); test: Component deacylation rate constant for interaction with human leukocyte elastase

Row | Log kon [1] | Log koff [2] | Structure (SMILES)
1 | 6 |  | CCSc1nc2ccc(C)cc2c(=O)o1
2 |  | -4 | COC(=O)[C@H](CC(C)C)Nc1nc2cccc(C)c2c(=O)o1
3 | 4.81 | -2.11 | CCc1cccc2nc(C)oc(=O)c12
4 | 4.82 | -2.26 | CCCCNc1nc2ccccc2c(=O)o1
5 | 5.65 | -1.39 | CCCNc1nc2ccccc2c(=O)o1
6 | 4 |  | O=c1oc(C(F)(F)C(F)(F)C(F)(F)F)nc2ccccc12
7 | 4 |  | CC(C)(C)c1nc2ccccc2c(=O)o1
8 | 4.07 | -4.75 | Cc1cccc2nc(NC(C)C)oc(=O)c12
9 | 5 |  | O=c1oc(C(F)(F)F)nc2ccccc12
10 | 4.85 | -4.18 | CCc1cccc2nc(NC(C)C)oc(=O)c12
11 | 2.91 | -1.29 | Nc1nc2ccccc2c(=O)o1
12 | 3.1 |  | COC(=O)[C@H](CC(C)C)NC(=O)[C@H](CC(C)C)Nc1nc2cc(C)cc(C)c2c(=O)o1
